For series [1] the following is noted: for concentration of ribavirin in the nebulizer flask: FIG. 7 apparatus, 300 ml volume.

Read-outs that look alike come from different tables or passages of the source.

`NC(=O)c1ncn([C@@H]2O[C@H](CO)[C@@H](O)[C@H]2O)n1` [ribavirin]: the reticulocyte counts entry (at discharge, both treated and control, P=0.01) is listed as “lowering of reticulocyte counts”. The absolute polymorphonuclear count entry (treated and control, consistent with drop in white count) was “major reduction”. Also, the “concentration of ribavirin in aerosol” value in series [1] (FIG. 3 apparatus, 20 mg per ml in reservoir, at initiation of generation) stood at 160 micrograms per liter. The figures for the “concentration of ribavirin in the nebulizer flask” value in series [1] (after 5 hours of operation) and in series [1] (initial) were 35.4 mg per ml and 31 mg per ml, respectively.

These data come from patent publication US4649911A, “Small particle aerosol generator for treatment of respiratory disease including the lungs” (Baylor College of Medicine, priority 1986, dated 1987).
